Target: T1, MDR1-transfected MDCK cells (Homo sapiens, UniProt P08183)
T1 construct: host or cells: MDCK cells
Assay: Bidirectional transport in MDR1-transfected MDCK cell monolayers
Format: in vitro ADME

Protein sequences, listed by entry. Tags and fused reporters are not part of them.
UniProt P08183, whole entry: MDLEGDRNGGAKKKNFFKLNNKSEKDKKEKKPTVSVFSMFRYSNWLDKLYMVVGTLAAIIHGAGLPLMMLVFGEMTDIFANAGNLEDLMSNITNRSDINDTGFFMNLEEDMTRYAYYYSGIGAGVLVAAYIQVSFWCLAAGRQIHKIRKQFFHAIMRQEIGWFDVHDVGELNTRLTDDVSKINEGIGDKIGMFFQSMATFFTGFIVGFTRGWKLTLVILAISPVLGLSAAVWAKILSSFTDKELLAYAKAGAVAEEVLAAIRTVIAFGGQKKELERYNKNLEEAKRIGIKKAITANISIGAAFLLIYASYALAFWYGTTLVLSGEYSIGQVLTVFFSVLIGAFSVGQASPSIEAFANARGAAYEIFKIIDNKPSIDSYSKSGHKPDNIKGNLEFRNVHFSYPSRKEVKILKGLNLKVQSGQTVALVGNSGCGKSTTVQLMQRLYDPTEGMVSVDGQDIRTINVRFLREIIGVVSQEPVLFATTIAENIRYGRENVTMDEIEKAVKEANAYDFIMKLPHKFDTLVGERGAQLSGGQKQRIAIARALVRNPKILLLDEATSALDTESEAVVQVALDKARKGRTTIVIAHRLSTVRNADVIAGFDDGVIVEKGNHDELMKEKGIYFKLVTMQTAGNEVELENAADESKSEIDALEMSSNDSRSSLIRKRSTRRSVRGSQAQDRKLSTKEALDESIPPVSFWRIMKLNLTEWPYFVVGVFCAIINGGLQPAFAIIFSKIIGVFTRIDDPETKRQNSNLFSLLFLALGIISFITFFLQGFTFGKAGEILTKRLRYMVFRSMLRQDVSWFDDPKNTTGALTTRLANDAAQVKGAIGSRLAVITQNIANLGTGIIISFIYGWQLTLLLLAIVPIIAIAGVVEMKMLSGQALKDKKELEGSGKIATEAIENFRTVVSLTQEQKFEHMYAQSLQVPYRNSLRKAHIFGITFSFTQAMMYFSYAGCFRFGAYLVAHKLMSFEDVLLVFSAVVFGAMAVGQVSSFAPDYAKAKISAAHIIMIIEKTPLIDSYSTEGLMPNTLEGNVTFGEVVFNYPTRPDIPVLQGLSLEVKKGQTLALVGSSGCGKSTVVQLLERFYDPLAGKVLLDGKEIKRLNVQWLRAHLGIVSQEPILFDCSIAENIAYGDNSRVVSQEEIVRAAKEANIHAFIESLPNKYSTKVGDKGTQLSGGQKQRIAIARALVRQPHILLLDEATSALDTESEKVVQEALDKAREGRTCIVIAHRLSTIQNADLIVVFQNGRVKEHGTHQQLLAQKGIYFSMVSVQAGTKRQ

Efflux Ratio (B→A/A→B) (MDR1-MDCK): 14.5
B→A apparent permeability (basolateral-to-apical, 2 μM): 24 ×10⁻⁶ cm/s
Compound: C[C@H]1O[C@@H](O[C@H]2[C@@H](O)C[C@H](O[C@H]3[C@@H](O)C[C@H](O[C@H]4CC[C@@]5(C)[C@H](CC[C@@H]6[C@@H]5C[C@@H](O)[C@]5(C)[C@@H](C7=CC(=O)OC7)CC[C@]65O)C4)O[C@@H]3C)O[C@@H]2C)C[C@H](O)[C@@H]1O [Digoxin]

Reference: PMC12523303, “Multi-Fused S,N-Heterocyclic Compounds for Targeting α-Synuclein Aggregates” (Cells, 2025)
